Measured values published in ChEMBL document CHEMBL6153078, “Design, synthesis, and biological evaluation of imidazolidinone derivatives as potent PPARα/δ agonists for the treatment of cholestatic liver diseases” (Eur J Med Chem, 2025).
Active and inactive are the calls of the source. No cut-off for these calls is given here.

Chains of the proteins cited; added tags and fusions are not shown.
UniProt P10826, whole entry: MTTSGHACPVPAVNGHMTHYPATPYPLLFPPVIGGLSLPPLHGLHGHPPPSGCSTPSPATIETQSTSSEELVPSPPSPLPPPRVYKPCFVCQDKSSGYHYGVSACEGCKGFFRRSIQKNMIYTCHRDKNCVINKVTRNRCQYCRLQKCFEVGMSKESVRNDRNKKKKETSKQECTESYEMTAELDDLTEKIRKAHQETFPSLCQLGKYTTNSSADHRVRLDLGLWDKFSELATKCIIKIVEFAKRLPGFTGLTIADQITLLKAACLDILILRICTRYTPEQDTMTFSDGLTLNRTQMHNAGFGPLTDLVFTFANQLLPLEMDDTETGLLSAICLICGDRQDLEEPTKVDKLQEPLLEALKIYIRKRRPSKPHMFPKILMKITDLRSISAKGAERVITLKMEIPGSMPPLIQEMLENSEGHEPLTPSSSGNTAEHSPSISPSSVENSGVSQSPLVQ
UniProt P10276, whole entry: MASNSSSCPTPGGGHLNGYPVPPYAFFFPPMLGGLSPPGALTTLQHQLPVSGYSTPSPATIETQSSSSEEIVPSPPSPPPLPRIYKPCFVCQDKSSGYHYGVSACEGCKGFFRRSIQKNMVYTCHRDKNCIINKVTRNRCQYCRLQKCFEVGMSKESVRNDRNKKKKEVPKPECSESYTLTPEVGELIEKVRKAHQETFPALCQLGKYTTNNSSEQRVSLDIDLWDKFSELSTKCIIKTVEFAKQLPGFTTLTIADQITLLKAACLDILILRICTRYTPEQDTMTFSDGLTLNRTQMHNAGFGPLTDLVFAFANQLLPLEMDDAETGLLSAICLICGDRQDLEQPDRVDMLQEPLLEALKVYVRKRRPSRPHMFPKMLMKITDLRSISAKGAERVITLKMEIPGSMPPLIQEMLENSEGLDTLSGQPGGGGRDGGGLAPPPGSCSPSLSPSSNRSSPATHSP
UniProt P13631, whole entry: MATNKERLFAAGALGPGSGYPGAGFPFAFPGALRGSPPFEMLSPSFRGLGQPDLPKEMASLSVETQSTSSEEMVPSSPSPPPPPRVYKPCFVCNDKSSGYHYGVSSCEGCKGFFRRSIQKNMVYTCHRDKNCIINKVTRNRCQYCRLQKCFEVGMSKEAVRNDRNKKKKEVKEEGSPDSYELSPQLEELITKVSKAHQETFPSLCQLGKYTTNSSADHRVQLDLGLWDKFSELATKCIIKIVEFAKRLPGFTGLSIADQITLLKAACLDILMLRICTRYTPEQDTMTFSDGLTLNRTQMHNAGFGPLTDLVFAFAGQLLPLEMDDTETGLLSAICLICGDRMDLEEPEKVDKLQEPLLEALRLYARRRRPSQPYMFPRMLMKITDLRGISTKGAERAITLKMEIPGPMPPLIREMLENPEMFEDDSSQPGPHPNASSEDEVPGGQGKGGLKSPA

Columns and labels:
Type in all cases: cell-based
Conditions in all cases: dose 1-10 µM
[1] = biological target: Retinoic acid receptor beta (Homo sapiens) (UniProt P10826); experiment: Agonist activity at GAL4-fused RAR-beta (unknown origin) transfected in African green monkey COS7 cells at 1 to 10 uM incubated for 16 hrs by Luciferase assay
[2] = biological target: Retinoic acid receptor beta (Homo sapiens) (UniProt P10826); experiment: Inhibition of GAL4-fused RAR-beta (unknown origin) transfected in African green monkey COS7 cells at 1 to 10 uM incubated for 16 hrs by Luciferase assay
[3] = biological target: T1, Vitamin D3 receptor (Homo sapiens) (UniProt P11473); experiment: Agonist activity at GAL4-fused VDR (unknown origin) transfected in African green monkey COS7 cells at 1 to 10 uM incubated for 16 hrs by Luciferase assay
T1 sequence (whole entry): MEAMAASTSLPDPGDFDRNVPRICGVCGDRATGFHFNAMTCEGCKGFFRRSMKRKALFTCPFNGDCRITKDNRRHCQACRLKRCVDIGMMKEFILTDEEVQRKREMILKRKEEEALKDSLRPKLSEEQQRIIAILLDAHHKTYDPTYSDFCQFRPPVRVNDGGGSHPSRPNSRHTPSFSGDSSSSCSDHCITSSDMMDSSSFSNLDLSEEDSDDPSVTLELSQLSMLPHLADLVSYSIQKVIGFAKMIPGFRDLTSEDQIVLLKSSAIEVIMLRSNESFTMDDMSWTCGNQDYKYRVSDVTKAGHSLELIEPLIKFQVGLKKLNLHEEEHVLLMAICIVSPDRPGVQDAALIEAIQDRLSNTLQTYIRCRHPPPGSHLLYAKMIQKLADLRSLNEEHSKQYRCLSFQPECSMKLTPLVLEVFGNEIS

[4] = biological target: T1, Vitamin D3 receptor (Homo sapiens); experiment: Inhibition of GAL4-fused VDR (unknown origin) transfected in African green monkey COS7 cells at 1 to 10 uM incubated for 16 hrs by Luciferase assay
[5] = biological target: Retinoic acid receptor alpha (Homo sapiens) (UniProt P10276); experiment: Inhibition of GAL4-fused RAR-alpha (unknown origin) transfected in African green monkey COS7 cells at 1 to 10 uM incubated for 16 hrs by Luciferase assay
[6] = biological target: Retinoic acid receptor gamma (Homo sapiens) (UniProt P13631); experiment: Inhibition of GAL4-fused RAR-gamma (unknown origin) transfected in African green monkey COS7 cells at 1 to 10 uM incubated for 16 hrs by Luciferase assay
[7] = biological target: Retinoic acid receptor gamma (Homo sapiens) (UniProt P13631); experiment: Agonist activity at GAL4-fused RAR-gamma (unknown origin) transfected in African green monkey COS7 cells at 1 to 10 uM incubated for 16 hrs by Luciferase assay
[8] = biological target: Retinoic acid receptor alpha (Homo sapiens) (UniProt P10276); experiment: Agonist activity at GAL4-fused RAR-alpha (unknown origin) transfected in African green monkey COS7 cells at 1 to 10 uM incubated for 16 hrs by Luciferase assay

- Activity [1]: inactive
- inhibition [2]: inactive
- Activity [3]: inactive
- inhibition [4]: inactive
- inhibition [5]: inactive
- inhibition [6]: inactive
- Activity [7]: inactive
- Activity [8]: inactive
SMILES: Cc1cc(CN2CCN(c3ccc(C(F)(F)F)cc3)C2=O)cc(C)c1OC(C)(C)C(=O)O
